Tests used:
[1] = biological target: T1, human ferritin heavy chain (H-subunit) (human, UniProt P02794); experiment: co-expression in E. coli Rosetta-gami B; single band on 7.5% Native PAGE
T1 construct: The number of copies per 24-mer varies with inducer concentrations (0 to 24); also called FtH; FTH

[2] = biological target: the molecule itself; experiment: expression in E. coli BL21; 7.5% Native PAGE (self-assembly)

binding result [1]: binds
B1: human ferritin light chain (L-subunit) (other)
chain: MSSQIRQNYSTDVEAAVNSLVNLYLQASYTYLSLGFYFDRDDVALEGVSHFFRELAEEKREGYERLLKMQNQRGGRALFQDIKKPAEDEWGKTPDAMKAAMALEKKLNQALLDLHALGSARTDPHLCDFLETHFLDEEVKLIKKMGDHLTNLHRLGGPEAGLGEYLFERLTLKHD
notes: The number of copies per 24-mer varies with inducer concentrations (0 to 24); also called FtL; FTL
binding result [2]: binds

— US20230348916A1 (RESEARCH FOUNDATION FOR SUNY, published 2023)
